Experimental data from US8637312B2, “Mammalian culture media with polyamine and iron” (Cellca GmbH, priority 2008, dated 2014).

System: CHO DG44 host cell line
Assay: Batch culture of antibody producing CHO clone, cell growth
Assay type: cell-based, Chinese hamster
Settings: Example 4, FIG. 4, in the presence of 40 mg/l spermine
Description: Transfectants were amplified using MTX in culture medium.
In this way cells were cultured in several passages.
The basal medium further comprises fatty acids and nucleotides.
Cells were cultured for 1 to 4 days. […] Thus, culture duration was approximately 10 to 18 days.
The cell pellet was resuspended in the corresponding media.

iron (III) pyrophosphate hydrate
tolerability of extremely high iron concentration to cells: tolerable
